The values below are quoted from earlier work in publication PMC4603705, “A bioinspired peptide scaffold with high antibiotic activity and low in vivo toxicity” (Scientific Reports, 2015).

The conditions of this data set: metabolic degradation; no reference given; cited from earlier work.

As for vapreotide, the half-lives was 2 to 3 h.
